Data taken from ChEMBL document CHEMBL1129964, “Design of highly potent noncovalent thrombin inhibitors that utilize a novel lipophilic binding pocket in the thrombin active site” (J Med Chem, 1997).

Target: Prothrombin (Homo sapiens, UniProt P00734)
Assay: Binding affinity towards thrombin

Compound: CS(=O)(=O)N[C@H](Cc1ccccc1)C(=O)N1CCC[C@H]1C(=O)NCC1CCC(N)CC1 (stereo partly specified)
- Ki: 3 nM
